# According to patent US20220233650A1:
# Columns and labels:
# Experiment in all cases: cell-based or functional assay
# [1] = target: FcγR1 (CD64) on human CD14+ monocytes (human) (UniProt P12314)
# [2] = target: FcγR2 (CD32) on human CD14+ monocytes (human)
# [3] = target: FcγR3 (CD16) on human CD14+ monocytes (human)
# FcγRs = target: FcγRs
substance,measurement,setting,value
recombinant Factor VIII Fc fusion protein (rFVIIIFc) (from UniProt P0DOX5 223-449),percent of cells characterized as osteoclasts after rFVIIIFc with an Anti-CD64 antibody Fab (FIG. 18B),[1],2.73%
same,percent of cells characterized as osteoclasts after rFVIIIFc with an Anti-CD64 antibody Fab (FIG. 22B),[1],3.02%
same,percent of cells characterized as osteoclasts after rFVIIIFc with an Anti-CD32 antibody (FIG. 19B and FIG. 23B),[2],17%
same,percent of cells characterized as osteoclasts after rFVIIIFc with an Anti-CD16 antibody (FIG. 20B),[3],4.11%
same,percent of cells characterized as osteoclasts after rFVIIIFc with an Anti-CD16 antibody (printed as FIG. 24A),[3],4.03%
same,"IC50 of the inhibition of osteoclast formation (CD51/61 high cells by flow cytometry, normalized to vehicle control)",FcγRs,7.49 nM
same,percent of cells characterized as CD51/61 high osteoclasts (FIG. 17B),FcγRs,5.54%
same,percent of cells characterized as CD51/61 high osteoclasts (FIG. 21B),FcγRs,5.57%
same,"percent of cells differentiated into osteoclasts (CD51/61 high, CD14 low) after 0.7 nM rFVIIIFc",FcγRs,62.6%
same,"percent of cells differentiated into osteoclasts (CD51/61 high, CD14 low) after 75 nM rFVIIIFc",FcγRs,1.44%
